# ChEMBL document CHEMBL1144404, “Aminoimidazolylmethyluracil analogues as potent inhibitors of thymidine phosphorylase and their bioreductive nitroimidazolyl prodrugs” (J Med Chem, 2005)
# Amino acid sequences for entries named in this document (tags omitted). A change or cut given only in a name is not applied to a line headed by its entry.
# UniProt P07650: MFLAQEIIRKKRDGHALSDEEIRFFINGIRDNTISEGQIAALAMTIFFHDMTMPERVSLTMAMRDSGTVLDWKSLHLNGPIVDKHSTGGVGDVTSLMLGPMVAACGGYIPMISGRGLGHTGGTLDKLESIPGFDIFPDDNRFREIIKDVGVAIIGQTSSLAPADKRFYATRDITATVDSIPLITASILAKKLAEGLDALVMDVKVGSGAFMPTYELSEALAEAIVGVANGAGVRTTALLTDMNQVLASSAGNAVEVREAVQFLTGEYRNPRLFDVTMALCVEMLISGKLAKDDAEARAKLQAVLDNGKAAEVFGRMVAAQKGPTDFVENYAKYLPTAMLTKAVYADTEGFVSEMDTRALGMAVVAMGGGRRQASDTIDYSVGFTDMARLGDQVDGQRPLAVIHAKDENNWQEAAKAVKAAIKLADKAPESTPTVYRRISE
# Molecular target: Thymidine phosphorylase (Escherichia coli K-12, UniProt P07650)
# Experiment: Inhibitory concentration against thymidine phosphorylase of Escherichia coli
# How it was run: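 Recombinant E. coli TP (45 nM) with 0.13 mM 5-nitro-2'-deoxyuridine in 0.1 M phosphate pH 7.4, 25 °C, 200 μL. Initial rate followed at 355 nm. Used 5-7 inhibitor concentrations, with DMSO ≤0.5% where needed.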
structure (smiles),measurement,value
O=c1[nH]c(=O)c2cc[nH]c2[nH]1 [7-DEAZAXANTHINE],IC50,40 µM
